# Water solubility values, as collected for the OPERA models

Values as listed in the OPERA 2.9 repository of K. Mansouri.

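The OPERA project collected these measurements from public sources as training and test data for property models. The files give a single number for a compound and property, which may rest on several reports. How each value was measured is not recorded, so precision varies. Where a salt, mixture or single isomer is drawn, the source does not say that exactly this form was tested. Some upstream entries may be estimates or bounds without being marked so.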

Water solubility is log10 of mol/L, nominally at 25 °C; higher is more soluble.

compound,log solubility (log10 mol/L)
CC(C)(c1ccc(OS(=O)(=O)c2ccccc2/N=N/c2c(N)ccc3cc(S(=O)(=O)[O-])cc(O)c23)cc1)c1ccc(OS(=O)(=O)c2ccccc2/N=N/c2c(N)ccc3cc(S(=O)(=O)[O-])cc(O)c23)cc1.[Na+].[Na+],-2.955
O=C(CCCN1CCC(O)(c2ccccc2)CC1)c1ccccc1,-4.063
Cc1nc2c(=O)n(C)c(=O)n(C)c2n1C,-2.142
CC(SC(=O)c1cccs1)C(=O)NCC(=O)O (centres undefined),-3.112
OCC(O)C(O)C(O)C(O)C(O)CO (centres undefined),-0.517
Cc1c(N)cccc1S(=O)(=O)O,-1.74
CC(C)c1ccc(N)cc1,-1.787
O=c1c2ccc3c4c(ccc(c24)c2nc4ccccc4n12)c(=O)n1c2ccccc2nc31,-7.758
C[C@H]1CC[C@H](C(N)=O)CC1,-2.172
O=C(O)c1cc2c(cc1C(=O)O)OCO2,-1.544
Clc1ccc(Oc2c(Cl)c(Cl)c(Cl)c(Cl)c2Cl)c(Cl)c1Cl,-10.55
S=C(SN1CCOCC1)N1CCOCC1,-3.291
O=S(=O)([O-])c1cc(Nc2nc(Nc3ccccc3)nc(N(CCO)CCO)n2)ccc1/C=C/c1ccc(Nc2nc(Nc3ccccc3)nc(N(CCO)CCO)n2)cc1S(=O)(=O)[O-].[Na+].[Na+],-1.284
O=c1cnc2ncncc2[nH]1,-2.714
c1ccc(N2CCSCC2)cc1,-1.254
CCOCOCC,-0.173
CC1=CC(=O)[C@@H](C(C)C)CC1,-1.788
CCCCCCCCOC(=O)C(C)OC(C)=O (centres undefined),-0.91
COc1cc(CC(=O)O)ccc1O,-1.03
CCCCOC(=O)c1ccccc1N=Nc1c(O)c(C(=O)Nc2ccc3[nH]c(=O)[nH]c3c2)cc2ccccc12,-8.214
CCC#CC(C)(C)C,-3.755
Nc1cccc(C(=O)O)c1,-1.366
CCCCCCCCCC=O,-3.726
CC(C)C(=O)c1c(C(C)C)nn2ccccc12,-3.109
CC1CCC2CC1([S-])C2(C)C.[Au+] (centres undefined),-7.865
Cc1ccc(N=Nc2c(N)nc(N)nc2O)c(S(=O)(=O)O)c1,-5.596
COc1cnc2cncnc2n1,-0.91
CCCCCCCCCCCCCCCCOC(=O)CCCCCCCCCCCCCCC,-8.755
CCCCn1c(O)cc(C)c(C#N)c1=O,-2.273
CCC(SC(CC)C(=O)O)C(=O)O (centres undefined),-0.709
Cc1cc(-c2cc(C)c(N)cc2S(=O)(=O)O)c(S(=O)(=O)O)cc1N,-2.217
CN(CCO)C(=O)COC(=O)c1ccccc1O,-1.604
O=C(O)c1ccc2cc(C(=O)O)ccc2c1,-7.858
Nc1c(Oc2ccccc2)cc(O)c2c1C(=O)c1ccccc1C2=O,-8.71
CCCCC(Cc1cc(C(C)(C)C)c(O)c(C(C)(C)C)c1)(C(=O)OC1CC(C)(C)N(C)C(C)(C)C1)C(=O)OC1CC(C)(C)N(C)C(C)(C)C1,-5.685
CC(=O)Nc1ccc(C=O)cc1,-1.58
CCCCCC(O)CCC (centres undefined),-2.586
Nc1ccc(N=Nc2ccc([N+](=O)[O-])cc2)cc1,-5.851
CCCCCCC(O)CCCCCCCCCCC(=O)NCc1cccc(CNC(=O)CCCCCCCCCCC(O)CCCCCC)c1 (centres undefined),-6.04
CN(Cc1cnc2nc(N)nc(N)c2n1)c1ccc(C(=O)N[C@@H](CCC(=O)O)C(=O)O)cc1,-3.424
Cl.N=C1C=CC(=C(c2ccc(N)cc2)c2ccc(N)cc2)C=C1,-1.979

Excerpt, the final 4 entries:

compound,log solubility (log10 mol/L)
Nc1ccc(N=Nc2ccc([N+](=O)[O-])cc2)cc1,-5.851
CCCCCCC(O)CCCCCCCCCCC(=O)NCc1cccc(CNC(=O)CCCCCCCCCCC(O)CCCCCC)c1 (centres undefined),-6.04
CN(Cc1cnc2nc(N)nc(N)c2n1)c1ccc(C(=O)N[C@@H](CCC(=O)O)C(=O)O)cc1,-3.424
Cl.N=C1C=CC(=C(c2ccc(N)cc2)c2ccc(N)cc2)C=C1,-1.979